Results: ChEMBL document CHEMBL1121828, “Quantitative structure-selectivity relationships. Comparison of the inhibition of Escherichia coli and bovine liver dihydrofolate reductase by 5-(substituted-benzyl)-2,4-diaminopyrimidines” (J Med Chem, 1981)

Biological target: T1, Dihydrofolate reductase (Bos taurus) (UniProt P00376)
T1 sequence (whole entry): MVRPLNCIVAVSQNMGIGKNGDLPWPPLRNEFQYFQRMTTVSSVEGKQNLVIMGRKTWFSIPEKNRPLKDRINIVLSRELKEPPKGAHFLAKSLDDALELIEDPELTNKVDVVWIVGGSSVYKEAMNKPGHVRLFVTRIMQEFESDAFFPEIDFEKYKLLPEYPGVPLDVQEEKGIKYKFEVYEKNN

SMILES | Log 1/Ki app
Nc1ncc(Cc2ccc(F)cc2)c(N)n1 | 5.18
Nc1ncc(Cc2ccc(Br)cc2)c(N)n1 | 5.17
CN(C)c1ccc(Cc2cnc(N)nc2N)cc1 | 4.76
Nc1ncc(Cc2cccc(Cl)c2)c(N)n1 | 5.47
Nc1ncc(Cc2cccc(Br)c2)c(N)n1 | 5.54
COc1ccc(Cc2cnc(N)nc2N)cc1 | 4.92
Nc1ncc(Cc2ccc([N+](=O)[O-])cc2)c(N)n1 | 5.02
